# Apparent affinities of Ab-14 variants for a coronavirus HR2 peptide

Target peptide (SARS-CoV-2 spike, HR2 region): PDVDLGDISGINAS

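The parent was found by panning a naive human phage display library on the peptide. Designed CDR sequences, proposed from the first random library and measured here. Their group label is 14L_En_HC (En: ensemble of fine-tuned language models; HC: hill climbing; a sequence that several methods proposed may carry one label only). The assay is AlphaSeq: two haploid yeast populations carry antibody and antigen on their surface. After mating in shaken culture at 30 °C for 16 h, diploids were selected and their barcode pairs sequenced. Scores were corrected for input abundance and mapped to Kd with protein pairs of known affinity run in the same pool. There are six technical replicates.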

The variants keep the heavy chain, the linker and the frameworks of Ab-14 (scFv order VH, a 15-residue (Gly4Ser)3 linker, VL).
VH: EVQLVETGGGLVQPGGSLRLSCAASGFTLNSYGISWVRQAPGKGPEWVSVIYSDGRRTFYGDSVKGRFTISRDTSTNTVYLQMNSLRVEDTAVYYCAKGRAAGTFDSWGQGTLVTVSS
VL: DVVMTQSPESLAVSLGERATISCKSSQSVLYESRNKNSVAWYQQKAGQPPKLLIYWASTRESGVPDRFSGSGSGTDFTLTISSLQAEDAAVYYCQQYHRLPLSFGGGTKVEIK

Variants are written as CDR1, CDR2 and CDR3 of the light chain (limits as in the source). Parent: KSSQSVLYESRNKNSVA, WASTRES, QQYHRLPLS. Affinities are written as log10 Kd with Kd in nM; a lower number is a better binder. A mean of the replicates is given; it leaves out those without a signal. "n.d." means that the variant was in the library but no mating with the target was seen in that replicate; the authors take this as a sign of poor binding, and no number exists. Values of this round are not directly comparable with the first-round values of the same sequences.

CDR-L1 | CDR-L2 | CDR-L3 | log10 Kd, replicates | mean, log10 nM | signal with controls
KISGYLNKESKATNNVA | EMVNRES | QQYDRLPLS | 1.50 1.14 0.73 1.21 1.41 1.39 | 1.23 | 2 of 18 (2.48)
KLREVQHLETKQRNNVA | DNDTREY | QDYFRLPLS | n.d. n.d. n.d. n.d. n.d. 3.11 | 3.11 | 1 of 18 (2.23)
TVSQVHEMLSRDKNSVA | DMNTRES | QQYDRLPLS | 0.77 0.98 0.61 0.10 0.36 1.07 | 0.65 | 1 of 18 (4.51)
SLAESVHLESRNKNSVA | DNSTRES | QHYDRLPLS | n.d. 3.17 1.93 2.30 2.90 n.d. | 2.58 | 0 of 18
KIMQSLNYEQFNVSNVA | GQETREN | QSYHRLPLS | 1.36 1.57 1.95 2.00 1.52 2.54 | 1.82 | 1 of 18 (2.82)
KLGDMVHTLSRNKNSIA | DMRTREN | QQYYRLPLS | 0.34 -0.03 -0.19 -0.10 -0.04 0.06 | 0.01 | 0 of 18
KLGSATRFESSNKASIA | DNSTREK | QQYHRLPLS | 0.80 0.79 0.58 0.94 0.68 0.50 | 0.71 | 1 of 18 (2.47)
HVSESVLQQSKMKNSVA | ENSTRES | QQYDRLPLS | 1.06 0.89 2.92 0.98 0.91 1.08 | 1.31 | 1 of 18 (1.92)
QLGAVQDMTSKNKNSVA | EQNTREN | QQYHRLPLS | 0.42 0.34 0.26 0.29 0.37 0.37 | 0.34 | 1 of 18 (2.89)
KLSMAYRYETEEKNSIA | ELVTRMS | QQYHRLPLS | 0.74 1.08 1.08 1.13 1.62 1.47 | 1.19 | 0 of 18
MLLQSTMYGERNRNSVA | HASTRND | QQYHRLPLI | 1.24 0.80 0.78 0.89 1.35 1.38 | 1.07 | 0 of 18
KLSMTYRFETEEKNSIA | ELVTRMS | QQYHRLPLS | 0.62 0.21 0.21 1.11 0.53 0.41 | 0.52 | 0 of 18
TMPQVWMYESRNKNNVA | EMSTRED | QQYFRLPLS | 0.65 0.33 0.32 0.42 0.72 0.78 | 0.54 | 0 of 18
KISMTYRYEQQASNSIA | EMTTREE | QSYHRLPLS | n.d. n.d. n.d. 2.41 n.d. 2.83 | 2.62 | 0 of 18
TISQSVMMTGLNRNSVA | QAEERIE | QQYHRLPLS | 1.36 1.51 1.65 1.70 1.96 1.41 | 1.60 | 0 of 18
HISDLIMVASRNKHSVA | DESTRPD | QQYHRLPLS | 0.19 -0.20 -0.27 -0.35 -0.30 -0.11 | -0.17 | 0 of 18
NMGQSMLGESRNKNSVA | HQSTRED | QHYHRLPLS | 0.70 0.35 1.01 0.79 0.79 0.55 | 0.70 | 2 of 18 (1.40)
KISQMSTIESIMHNSVA | QTSEREN | QQYDRLPLS | 0.94 0.74 0.91 0.87 0.97 1.31 | 0.96 | 0 of 18
TISTLMRYETSLKNAIA | NAQTREQ | QQYHRLPIS | 0.58 0.98 0.71 0.47 1.32 0.94 | 0.83 | 3 of 18 (3.01)
HFSQVTMYGSWLKNSVA | QTSTREE | QQYDRLPLS | 0.54 0.62 0.63 0.55 0.81 0.14 | 0.55 | 0 of 18
MFSQGVMYGWLARNSVA | NSSTRES | QQYHRLPLS | 0.65 1.39 1.32 0.56 0.56 0.77 | 0.88 | 0 of 18
TLVQSVMSGSRIKNSVA | NAETRYD | QHYHRLPLS | n.d. 1.32 1.40 1.48 1.82 1.86 | 1.57 | 0 of 18
KLSQLFYKEMKNKNNVA | EMTTRGS | QQYDRLPLS | 1.70 1.70 1.76 1.96 1.70 2.26 | 1.85 | 1 of 18 (2.60)
TISNSFMMENQFKNSVA | QASTRED | QCYDRLPLS | n.d. 1.22 n.d. n.d. n.d. 0.99 | 1.10 | 0 of 18
KISMSYRYESQAKNSIA | EMTTRME | QSYHRLPLS | 0.24 0.22 -0.13 -0.31 0.05 0.01 | 0.02 | 1 of 18 (1.71)
LISGVWDYGSRNYNSVA | QTSTRES | QQYDRLPLF | 1.10 1.58 1.18 1.63 2.16 1.06 | 1.45 | 0 of 18
KLSVSWLFESIEKNSVA | ERSTRGS | QDYNRLPLS | 1.68 2.24 1.69 1.40 1.43 1.38 | 1.64 | 0 of 18
KISWNALIESKNLNSVA | EMTTREY | QDYDRLPLS | n.d. n.d. n.d. n.d. n.d. n.d. | n.d. | 0 of 18
TINQSAQMESHNKNSVA | DLSVRGS | QQYHRLPLS | 0.01 -0.01 0.23 0.25 0.15 0.28 | 0.15 | 1 of 18 (2.76)
NISESMYFQTRMKNNIA | EVSTRER | QHYHRLPLS | 0.57 0.82 0.58 0.80 0.91 0.62 | 0.72 | 1 of 18 (2.88)
KLSQSVMFFGHAINSVA | EMETREN | QQYDRLPLS | n.d. n.d. n.d. n.d. n.d. n.d. | n.d. | 0 of 18
KLSVSYLFEQLEKNSIA | ENSTREE | QHYHRLPLS | n.d. n.d. n.d. n.d. n.d. n.d. | n.d. | 1 of 18 (1.94)
KLSVHTLFESIEKNSVA | ERSTRES | QDYNRLPLS | n.d. n.d. 1.02 2.63 n.d. n.d. | 1.83 | 0 of 18
KLRMSTGYEMRNKDSIA | DNSTRGR | QQYHRLPLS | 1.32 0.79 0.71 1.24 1.19 1.58 | 1.14 | 1 of 18 (1.46)
KFGQSVLGGSYVRNSVA | QQSTREN | QQYDRLPLS | 0.94 1.37 2.65 1.66 1.00 1.41 | 1.50 | 0 of 18
KLLQTTMNETRNRNNVA | HMTTRED | QQYHRLPLS | 1.24 0.64 1.45 0.94 1.32 1.26 | 1.14 | 1 of 18 (2.55)

For reference, 3 entries of the list once more:

CDR-L1	CDR-L2	CDR-L3	log10 Kd, replicates	mean, log10 nM	signal with controls
KIMQSLNYEQFNVSNVA	GQETREN	QSYHRLPLS	1.36 1.57 1.95 2.00 1.52 2.54	1.82	1 of 18 (2.82)
TVSQVHEMLSRDKNSVA	DMNTRES	QQYDRLPLS	0.77 0.98 0.61 0.10 0.36 1.07	0.65	1 of 18 (4.51)
HFSQVTMYGSWLKNSVA	QTSTREE	QQYDRLPLS	0.54 0.62 0.63 0.55 0.81 0.14	0.55	0 of 18

Three control strains display no target. For all light chain designs, 4% of the pairings with them gave a signal, with a median of 2.64 and one signal in twenty below 1.59, so weak values seen in few replicates may be background. The control count says in how many pairings with the empty strains this scFv gave a signal, with their mean in brackets. The authors averaged sequences with at least three values out of six and counted those with two or fewer as poor binders.

From the AlphaSeq antibody data of Li et al. 2023 (doi:10.1038/s41467-023-39022-2), copy in the FLAb collection.